# B1: Gsα: α subunit of the stimulatory G-protein, wild-type (protein, UniProt P63092 2-394, looked up)
# Guanine nucleotide-binding …: GCLGNSKTEDQRNEEKAQREANKKIEKQLQKDKQVYRATHRLLLLGAGESGKSTIVKQMRILHVNGFNGEGGEEDPQAARSNSDGEKATKVQDIKNNLKEAIETIVAAMSNLVPPVELANPENQFRVDYILSVMNVPDFDFPPEFYEHAKALWEDEGVRACYERSNEYQLIDCAQYFLDKIDVIKQADYVPSDQDLLRCRVLTSGIFETKFQVDKVNFHMFDVGGQRDERRKWIQCFNDVTAIIFVVASSSYNMVIREDNQTNRLQEALNLFKSIWNNRWLRTISVILFLNKQDLLAEKVLAGKSKIEDYFPEFARYTTPEDATPEPGEDPRVTRAKYFIRDEFLRISTASGDGRHYCYPHFTCAVDTENIRRVFNDCRDIIQRMHLRQYELL
# What was measured:
# [1] = biological target: β2 adrenoceptor, tagged at the amino-terminus with the FLAG epitope (UniProt P07550); test: cell-based or functional assay
# β2 adrenoceptor = biological target: T1, β2 adrenoceptor (Homo sapiens, UniProt P07550); test: [3H]DHA competition binding with isoproterenol in Sf9 membranes coexpressing β2 adrenoceptor and Gsα or tetGsα; conditions: isoproterenol competition with 1 nM [3H]DHA, without or with 10 μM GTPγS
# T1 construct: expressed in transfected cells; host or cells: Sf9 insect cells (baculovirus infection), membrane preparation
# Description: Competition binding of [^3H]DHA (1 nM) with varying concentrations of isoproterenol in Sf9 membranes coexpressing β2 AR and either wild-type Gsα (FIG. 2) or tetGsα (FIG. 3). Membrane proteins (15-20 μg/tube) from infected Sf9 insect cells were suspended in 500 μL of binding buffer (75 mM Tris/HCl, pH 7.4, 12.5 mM MgCl2, and 1 mM EDTA), supplemented with 10 nM [^3H]DHA and 0.2% (w/v) BSA to determine β2 adrenoceptor expression level. Nonspecific binding was assessed in the presence of 10 μM (−)-alprenolol. Incubations were performed for 60 min at 25° C. with shaking at 200 rpm. Competition binding experiments were carried out with 1 nM [^3H]DHA in the presence of isoproterenol at various concentrations without or with GTPγS (10 μM) as described elsewhere (Seifert, R. et al., (1998) J. Biol. Chem. 273: 5109-16; Seifert, R. et al., (1998) Eur. J. Biochem. 255: 369-382). Expression levels of β2 adrenoceptor in FIGS. 2 and 3 are 7.4 and 4.8 pmol/mg, respectively. Data are expressed as percent of basal bound [^3H]DHA. Data shown are the mean ±SD of three independent experiments performed in triplicate.
# β2 AR = biological target: T2, β2 AR (Homo sapiens, UniProt P07550); test: [35S]GTPγS binding in membranes coexpressing β2 AR and Gsα or tetGsα; format: biochemical; conditions: large excess of Gsα
# T2 construct: expressed in transfected cells; host or cells: Sf9 insect cells (baculovirus infection), membrane preparation
# Description: Membranes were pelleted by a 15 min centrifugation at 4 C. and 15000 g and resuspended in binding buffer. Sf9 membranes (10 μg of protein/tube) were suspended in 500 μL of binding buffer supplemented with 0.05% (w/v) BSA, 1 nM [^35S]GTPγS (0.25 uCi/tube), GDP (1 μM) with or without isoproterenol (10 μM). Incubations were performed at 25 C. and shaking at 200 rpm. Nonspecific binding was determined in the presence of 10 μM GTPγS and was less than 0.2% of total binding. Bound [^35S]-GTPγS was separated from free [^35S]GTPγS by filtration through GF/C filters, followed by three washes with 3 mL of cold binding buffer. Filter-bound radioactivity was determined by liquid scintillation counting.
Molecule,GTPγS-sensitive high-affinity agonist binding sites [1],GTPγS-sensitive high-affinity agonist binding sites for the β2 AR (β2 adrenoceptor),β2 adrenoceptor-stimulated GTPγS binding (β2 AR)
wild-type Gsα (α subunit of the stimulatory G-protein),30%,–,–
B1,–,Approximately 30%,very little

# Source: patent US6448377B1, “Modified G protein sunbunits” (The Board of Trustees of the Leland Stanford Junior …, priority 2000, dated 2002)
